Test results from patent US20140045856A1, “4-Methyl-2,3,5,9,9b-pentaaza-cyclopenta[a]naphthalenes” (BOEHRINGER INGELHEIM INTERNATIONAL GMBH, priority 2012, published 2014).

Chains of the proteins cited; added tags and fusions are not shown.
UniProt O00408, whole entry, species assumed: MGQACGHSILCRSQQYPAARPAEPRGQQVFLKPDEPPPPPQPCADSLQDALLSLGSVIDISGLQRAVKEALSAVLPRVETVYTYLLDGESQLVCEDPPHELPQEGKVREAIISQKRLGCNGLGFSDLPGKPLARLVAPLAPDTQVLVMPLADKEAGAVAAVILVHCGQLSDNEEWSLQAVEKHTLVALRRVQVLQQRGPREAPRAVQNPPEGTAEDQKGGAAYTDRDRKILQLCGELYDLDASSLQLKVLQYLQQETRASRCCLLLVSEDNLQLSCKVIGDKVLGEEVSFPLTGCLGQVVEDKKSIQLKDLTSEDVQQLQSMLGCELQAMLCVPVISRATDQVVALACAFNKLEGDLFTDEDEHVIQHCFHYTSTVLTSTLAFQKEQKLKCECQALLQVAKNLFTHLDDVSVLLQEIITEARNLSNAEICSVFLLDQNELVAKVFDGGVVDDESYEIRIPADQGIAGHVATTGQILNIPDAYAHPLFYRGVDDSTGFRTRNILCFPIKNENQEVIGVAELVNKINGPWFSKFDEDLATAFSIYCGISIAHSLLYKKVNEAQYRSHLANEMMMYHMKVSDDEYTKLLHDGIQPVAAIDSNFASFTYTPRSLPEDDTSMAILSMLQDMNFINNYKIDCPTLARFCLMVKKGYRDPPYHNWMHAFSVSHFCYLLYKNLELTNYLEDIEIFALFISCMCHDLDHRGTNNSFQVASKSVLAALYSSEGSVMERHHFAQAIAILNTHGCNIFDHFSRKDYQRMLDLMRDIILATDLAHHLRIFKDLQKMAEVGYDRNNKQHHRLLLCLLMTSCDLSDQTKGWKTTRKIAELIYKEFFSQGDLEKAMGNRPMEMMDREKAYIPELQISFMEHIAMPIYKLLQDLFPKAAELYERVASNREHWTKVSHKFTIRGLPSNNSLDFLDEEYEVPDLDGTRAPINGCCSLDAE

Target: PDE2A (Homo sapiens, UniProt O00408)
Assay: PDE 2A assay with fluorescent substrate (IMAP, fluorescence polarization)
Assay type: biochemical
Settings: read-out: PDE2 IC50

IC50 [µM]	Structure (SMILES)
0.045	Cc1nc2ccc(C3CC3)nc2n2c(-c3cc(OC4COCC4O)ccc3Cl)nnc12 (single isomer, unassigned) [Example 58b]
0.037	Cc1nc2ccc(C3CC3)nc2n2c(-c3cc(OC4COCC4O)ccc3Cl)nnc12 (single isomer, unassigned) [Example 58c]
